## AlphaSeq binding of Ab-14 heavy chain variants to a spike HR2 peptide

From the AlphaSeq antibody data of Li et al. 2023 (doi:10.1038/s41467-023-39022-2), copy in the FLAb collection.

All variants were tested on one target, the spike HR2 peptide PDVDLGDISGINAS (SARS-CoV-2).

Each scFv is VH, three GGGGS repeats, VL, as in the parent Ab-14, and differs from it in the CDRs of the heavy chain only.
VH: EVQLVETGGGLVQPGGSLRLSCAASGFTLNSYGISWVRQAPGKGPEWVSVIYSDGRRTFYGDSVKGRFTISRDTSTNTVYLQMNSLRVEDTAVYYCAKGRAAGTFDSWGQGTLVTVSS
VL: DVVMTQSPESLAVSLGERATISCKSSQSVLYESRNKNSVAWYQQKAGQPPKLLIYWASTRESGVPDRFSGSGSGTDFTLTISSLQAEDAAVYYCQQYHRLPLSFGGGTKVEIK

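Designed CDR sequences, proposed from the first random library and measured here. Their group label is 14H_GPLM_Gen (GPLM: also part of the Gaussian process libraries; Gen: genetic algorithm; a sequence that several methods proposed may carry one label only). Affinity was read by AlphaSeq, a pooled yeast mating assay with surface-displayed partners. Mating (16 h, 30 °C) was followed by selection of diploids and sequencing of their barcodes. Scores were corrected for input abundance and mapped to Kd with protein pairs of known affinity run in the same pool. Mating was done six times.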

Sequences are complete VH domains.
Numbers give log10(Kd / nM), so 0 is 1 nM and 3 is 1 µM. Smaller is tighter.
"ND" marks a missing value. The strain was present, yet no cells mated with the target were sequenced in that replicate, which points to weak or no binding.

{"VH": "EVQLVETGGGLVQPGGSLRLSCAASGFTLNDYGISWVRQAPGKGPEWVSVIYSDGRRTFYHDSVKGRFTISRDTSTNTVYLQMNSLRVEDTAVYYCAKGRTAGTFDSWGQGTLVTVSS", "log10 Kd, replicates": "0.11 / 0.02 / -0.01 / -0.31 / -0.18 / -0.08", "signal with controls": "0/18"}
{"VH": "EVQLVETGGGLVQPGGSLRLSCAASGFTLNEYGISWVRQAPGKGPEWVSVIYSDGRRTFYGDSVKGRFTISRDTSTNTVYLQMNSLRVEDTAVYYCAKGREAGTFDSWGQGTLVTVSS", "log10 Kd, replicates": "0.57 / 0.33 / 0.87 / -0.66 / -0.02 / 0.94", "signal with controls": "1/18 (1.09)"}
{"VH": "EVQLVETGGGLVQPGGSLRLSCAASGFSLNSYGISWVRQAPGKGPEWVSVIYSDGRRTFYADRVKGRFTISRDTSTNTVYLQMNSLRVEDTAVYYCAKGEAAGTFDSWGQGTLVTVSS", "log10 Kd, replicates": "0.71 / 0.85 / 0.03 / 0.58 / 0.68 / 0.23", "signal with controls": "1/18 (1.83)"}
{"VH": "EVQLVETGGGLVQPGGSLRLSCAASGFSLNSYGISWVRQAPGKGPEWVSVIYSDGRRTFYADSVKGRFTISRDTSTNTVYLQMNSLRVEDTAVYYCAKGEAAGTFDSWGQGTLVTVSS", "log10 Kd, replicates": "0.10 / -0.07 / 0.17 / -0.32 / 0.01 / 0.49", "signal with controls": "2/18 (1.74)"}
{"VH": "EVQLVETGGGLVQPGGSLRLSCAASGFSLNSYGISWVRQAPGKGPEWVSVIYSDGRRAFYGDSVKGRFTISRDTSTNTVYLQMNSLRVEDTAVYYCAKGRTAGTFDSWGQGTLVTVSS", "log10 Kd, replicates": "0.60 / 0.96 / 0.54 / 1.01 / 0.63 / 1.53", "signal with controls": "0/18"}
{"VH": "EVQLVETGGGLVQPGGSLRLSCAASGFTLESYGISWVRQAPGKGPEWVSVIYSDGRRTFYGDSVKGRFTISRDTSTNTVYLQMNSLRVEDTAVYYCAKGRVAGTFDSWGQGTLVTVSS", "log10 Kd, replicates": "1.87 / 1.09 / 0.76 / 1.26 / 1.26 / 1.90", "signal with controls": "0/18"}
{"VH": "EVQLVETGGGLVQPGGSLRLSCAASHFSLNDYGISWVRQAPGKGPEWVSVIYSDGRRTFYGDSVKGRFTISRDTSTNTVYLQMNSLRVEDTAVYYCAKGRTAGTFDSWGQGTLVTVSS", "log10 Kd, replicates": "1.26 / -0.36 / 0.19 / ND / 0.63 / 0.55", "signal with controls": "0/18"}
{"VH": "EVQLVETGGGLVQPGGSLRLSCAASGFTLNSYGISWVRQAPGKGPEWVSVIYSDGRRTFYTDRVKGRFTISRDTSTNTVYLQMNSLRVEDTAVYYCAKGEAAGTFDSWGQGTLVTVSS", "log10 Kd, replicates": "ND / 1.28 / 2.57 / 1.64 / 1.91 / 0.85", "signal with controls": "1/18 (2.09)"}
{"VH": "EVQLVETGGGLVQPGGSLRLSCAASGFSLNDYGISWVRQAPGKGPEWVSVIYSDGRRTFYADSVKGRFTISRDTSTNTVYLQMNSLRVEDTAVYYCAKGRAAGTFDSWGQGTLVTVSS", "log10 Kd, replicates": "0.17 / 0.03 / -0.24 / -0.01 / -0.31 / 0.01", "signal with controls": "0/18"}
{"VH": "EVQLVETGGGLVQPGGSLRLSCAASGFSLNSYGISWVRQAPGKGPEWVSVIYSDGRRTFYTDSVKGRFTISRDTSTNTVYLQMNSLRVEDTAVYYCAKGRMAGTFDSWGQGTLVTVSS", "log10 Kd, replicates": "0.57 / 0.92 / 0.38 / 0.43 / 0.24 / 0.60", "signal with controls": "1/18 (2.05)"}
{"VH": "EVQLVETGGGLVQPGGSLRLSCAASGFSLNDYGISWVRQAPGKGPEWVSVIYSDGRRTFYCDSVKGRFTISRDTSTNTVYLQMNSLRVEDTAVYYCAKGRTAGTFDSWGQGTLVTVSS", "log10 Kd, replicates": "0.91 / 0.66 / 1.14 / 0.39 / 0.88 / 1.69", "signal with controls": "0/18"}
{"VH": "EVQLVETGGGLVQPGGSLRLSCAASGFTLNEYGISWVRQAPGKGPEWVSVIYSDGRRTFYGDSVKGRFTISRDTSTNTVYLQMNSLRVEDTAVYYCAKGRTAGTFTSWGQGTLVTVSS", "log10 Kd, replicates": "ND / ND / ND / ND / ND / ND", "signal with controls": "0/18"}
{"VH": "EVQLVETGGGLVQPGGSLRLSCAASGFSLNEYGISWVRQAPGKGPEWVSVIYSDGRRTFYGDSVKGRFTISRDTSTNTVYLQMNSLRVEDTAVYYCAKGPAAGTFDSWGQGTLVTVSS", "log10 Kd, replicates": "ND / ND / ND / ND / ND / ND", "signal with controls": "0/18"}
{"VH": "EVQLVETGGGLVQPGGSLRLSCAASGFTLESYGISWVRQAPGKGPEWVSVIYSDGKRTFYGDSVKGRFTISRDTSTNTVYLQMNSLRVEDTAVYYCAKGRVAGTFDSWGQGTLVTVSS", "log10 Kd, replicates": "0.68 / 0.82 / 0.80 / 0.60 / 0.33 / 0.82", "signal with controls": "0/18"}
{"VH": "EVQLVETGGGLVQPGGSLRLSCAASGFSLNQYGISWVRQAPGKGPEWVSVIYSDGRRTFYSDSVKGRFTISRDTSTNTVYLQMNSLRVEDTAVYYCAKGQAAGTFDSWGQGTLVTVSS", "log10 Kd, replicates": "0.09 / -0.28 / -0.23 / 0.26 / 0.11 / 0.03", "signal with controls": "0/18"}
{"VH": "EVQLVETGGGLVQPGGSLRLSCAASGFSLNSYGISWVRQAPGKGPEWVSVIYSDGRRTFYGDSVKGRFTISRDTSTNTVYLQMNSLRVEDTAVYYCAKGRTAGTFDYWGQGTLVTVSS", "log10 Kd, replicates": "1.22 / 1.10 / 1.75 / 0.76 / 1.52 / 1.04", "signal with controls": "0/18"}

Picked from the list: the 2 lowest averages where every replicate gave a value.

{"VH": "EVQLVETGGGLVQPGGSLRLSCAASGFTLNDYGISWVRQAPGKGPEWVSVIYSDGRRTFYHDSVKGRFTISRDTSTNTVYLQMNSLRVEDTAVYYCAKGRTAGTFDSWGQGTLVTVSS", "log10 Kd, replicates": "0.11 / 0.02 / -0.01 / -0.31 / -0.18 / -0.08", "signal with controls": "0/18"}
{"VH": "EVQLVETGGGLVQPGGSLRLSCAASGFSLNDYGISWVRQAPGKGPEWVSVIYSDGRRTFYADSVKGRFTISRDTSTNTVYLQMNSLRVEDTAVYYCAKGRAAGTFDSWGQGTLVTVSS", "log10 Kd, replicates": "0.17 / 0.03 / -0.24 / -0.01 / -0.31 / 0.01", "signal with controls": "0/18"}

A sequence measured in both rounds can read differently, since the two assays cover different ranges.
Of ten entries with the parent sequence, four were seen in most replicates (averages 0.34 to 2.37), three in one and three in none, so single entries are noisy.
Background: pairings of all heavy chain designs with three empty control strains gave a value in 1% of cases (median 2.08, 5th percentile 0.84). Values in that range, when seen in few replicates, are hard to tell from nonspecific mating. For each scFv, signals with the empty controls are counted beside the result, with their mean in brackets.
The authors' rule: three or more of the six replicates give a measured affinity, fewer mean a poor binder.